Test results from ChEMBL document CHEMBL1148908, “Biscoumarin derivatives from Edgeworthia gardneri that inhibit the lyase activity of DNA polymerase beta” (J Nat Prod, 2004).

Target: DNA polymerase beta (Rattus norvegicus, UniProt P06766)
Experiment: Inhibition of lyase activity of rat DNA polymerase beta after 30 mins

- IC50: 22.5 µM
Compound: O=c1ccc2ccc(Oc3cc4ccc(O)cc4oc3=O)cc2o1 [EDGEWORIN]
